IntAct's records for PubMed 31515488

B1: Tumor necrosis factor receptor superfamily member 5 (Homo sapiens), P25942 (parent)
chain: MVRLPLQCVLWGCLLTAVHPEPPTACREKQYLINSQCCSLCQPGQKLVSDCTEFTETECLPCGESEFLDTWNRETHCHQHKYCDPNLGLRVQQKGTSETDTICTCEEGWHCTSEACESCVLHRSCSPGFGVKQIATGVSDTICEPCPVGFFSNVSSAFEKCHPWTSCETKDLVVQQAGTNKTDVVCGPQDRLRALVVIPIIFGILFAILLVLVFIKKVAKKPTNKAPHPKQEPQEINFPDDLPGSNTAAPVQETLHGCQPVTQEDGKESRISVQERQ
B2: TNFAIP3-interacting protein 1 (Homo sapiens), Q15025 (parent)
chain: MEGRGPYRIYDPGGSVPSGEASAAFERLVKENSRLKEKMQGIKMLGELLEESQMEATRLRQKAEELVKDNELLPPPSPSLGSFDPLAELTGKDSNVTASPTAPACPSDKPAPVQKPPSSGTSSEFEVVTPEEQNSPESSSHANAMALGPLPREDGNLMLHLQRLETTLSVCAEEPDHGQLFTHLGRMALEFNRLASKVHKNEQRTSILQTLCEQLRKENEALKAKLDKGLEQRDQAAERLREENLELKKLLMSNGNKEGASGRPGSPKMEGTGKKAVAGQQQASVTAGKVPEVVALGAAEKKVKMLEQQRSELLEVNKQWDQHFRSMKQQYEQKITELRQKLADLQKQVTDLEAEREQKQRDFDRKLLLAKSKIEMEETDKEQLTAEAKELRQKVKYLQDQLSPLTRQREYQEKEIQRLNKALEEALSIQTPPSSPPTAFGSPEGAGALLRKQELVTQNELLKQQVKIFEEDFQRERSDRERMNEEKEELKKQVEKLQAQVTLSNAQLKAFKDEEKAREALRQQKRKAKASGERYHVEPHPEHLCGAYPYAYPPMPAMVPHHGFEDWSQIRYPPPPMAMEHPPPLPNSRLFHLPEYTWRLPCGGVRNPNQSSQVMDPPTARPTEPESPKNDREGPQ
partner: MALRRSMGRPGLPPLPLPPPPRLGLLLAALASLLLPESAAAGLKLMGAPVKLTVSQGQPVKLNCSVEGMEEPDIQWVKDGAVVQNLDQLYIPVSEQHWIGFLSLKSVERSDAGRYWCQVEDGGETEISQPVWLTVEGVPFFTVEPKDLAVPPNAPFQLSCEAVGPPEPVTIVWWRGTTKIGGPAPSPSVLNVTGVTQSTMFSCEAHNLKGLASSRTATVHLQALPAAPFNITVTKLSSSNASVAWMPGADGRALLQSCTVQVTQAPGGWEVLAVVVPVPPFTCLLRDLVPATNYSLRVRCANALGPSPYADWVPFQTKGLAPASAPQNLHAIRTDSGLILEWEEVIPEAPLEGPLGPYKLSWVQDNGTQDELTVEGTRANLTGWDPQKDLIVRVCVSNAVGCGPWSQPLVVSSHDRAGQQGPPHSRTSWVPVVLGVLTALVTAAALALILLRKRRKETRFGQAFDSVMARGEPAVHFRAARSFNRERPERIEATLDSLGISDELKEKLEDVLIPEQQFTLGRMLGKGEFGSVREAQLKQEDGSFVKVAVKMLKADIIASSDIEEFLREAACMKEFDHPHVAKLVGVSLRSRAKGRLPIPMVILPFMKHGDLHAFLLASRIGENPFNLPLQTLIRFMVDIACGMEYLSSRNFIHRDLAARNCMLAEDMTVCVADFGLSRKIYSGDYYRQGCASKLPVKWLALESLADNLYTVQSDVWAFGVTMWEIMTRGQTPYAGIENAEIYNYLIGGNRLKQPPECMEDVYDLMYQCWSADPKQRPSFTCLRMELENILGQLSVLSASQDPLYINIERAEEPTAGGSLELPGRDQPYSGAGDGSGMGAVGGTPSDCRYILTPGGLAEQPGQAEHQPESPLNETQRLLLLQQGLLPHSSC
B3: Protein INCA1 (Homo sapiens), Q0VD86 (parent)
chain: MQVQDDGVNLIPFAKCSRVVSRSPPPRLPSQSLRPMPQRYGDVFWKNLNQRPTPTWLEEQHIPPMLRATGCSQLGLYPPEQLPPPEMLWRRKKRRPCLEGMQQQGLGGVPARVRAVTYHLEDLRRRQSIINELKKAQWGSSGAASEPVVLGEEGCGFPSTNEYPDLEEERATYPQEEDRFLTPGRAQLLWSPWSPLDQEEACASRQLHSLASFSTVTARRNPLHNPWGMELAASEE
partner: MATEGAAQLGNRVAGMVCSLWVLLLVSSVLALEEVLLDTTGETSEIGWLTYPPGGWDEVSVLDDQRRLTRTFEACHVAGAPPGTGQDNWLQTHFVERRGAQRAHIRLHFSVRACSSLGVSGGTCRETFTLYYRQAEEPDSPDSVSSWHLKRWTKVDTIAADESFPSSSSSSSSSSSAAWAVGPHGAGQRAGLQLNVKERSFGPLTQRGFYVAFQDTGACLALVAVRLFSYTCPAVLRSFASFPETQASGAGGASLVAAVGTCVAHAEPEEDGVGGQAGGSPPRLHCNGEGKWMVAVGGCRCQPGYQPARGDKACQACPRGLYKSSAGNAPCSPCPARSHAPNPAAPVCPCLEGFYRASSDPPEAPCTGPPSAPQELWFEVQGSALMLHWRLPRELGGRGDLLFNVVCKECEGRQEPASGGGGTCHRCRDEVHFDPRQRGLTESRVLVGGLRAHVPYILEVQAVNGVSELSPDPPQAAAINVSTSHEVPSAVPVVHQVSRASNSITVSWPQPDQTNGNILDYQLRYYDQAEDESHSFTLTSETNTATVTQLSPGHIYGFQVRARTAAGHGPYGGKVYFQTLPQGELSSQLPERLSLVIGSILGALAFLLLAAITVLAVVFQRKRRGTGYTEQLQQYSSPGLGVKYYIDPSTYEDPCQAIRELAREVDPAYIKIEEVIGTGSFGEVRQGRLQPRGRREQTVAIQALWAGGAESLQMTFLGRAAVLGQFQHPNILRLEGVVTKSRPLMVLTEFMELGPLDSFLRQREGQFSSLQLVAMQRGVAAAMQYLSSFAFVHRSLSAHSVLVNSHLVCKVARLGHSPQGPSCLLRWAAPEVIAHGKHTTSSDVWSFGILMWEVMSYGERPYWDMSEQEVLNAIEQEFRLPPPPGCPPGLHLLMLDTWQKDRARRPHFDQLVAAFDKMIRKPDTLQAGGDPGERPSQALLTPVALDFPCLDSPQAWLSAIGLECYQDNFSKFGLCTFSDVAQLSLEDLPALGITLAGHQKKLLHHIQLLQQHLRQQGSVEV
B4: TNFAIP3-interacting protein 1 (Homo sapiens), Q15025 (parent)
chain: B2 chain
partner: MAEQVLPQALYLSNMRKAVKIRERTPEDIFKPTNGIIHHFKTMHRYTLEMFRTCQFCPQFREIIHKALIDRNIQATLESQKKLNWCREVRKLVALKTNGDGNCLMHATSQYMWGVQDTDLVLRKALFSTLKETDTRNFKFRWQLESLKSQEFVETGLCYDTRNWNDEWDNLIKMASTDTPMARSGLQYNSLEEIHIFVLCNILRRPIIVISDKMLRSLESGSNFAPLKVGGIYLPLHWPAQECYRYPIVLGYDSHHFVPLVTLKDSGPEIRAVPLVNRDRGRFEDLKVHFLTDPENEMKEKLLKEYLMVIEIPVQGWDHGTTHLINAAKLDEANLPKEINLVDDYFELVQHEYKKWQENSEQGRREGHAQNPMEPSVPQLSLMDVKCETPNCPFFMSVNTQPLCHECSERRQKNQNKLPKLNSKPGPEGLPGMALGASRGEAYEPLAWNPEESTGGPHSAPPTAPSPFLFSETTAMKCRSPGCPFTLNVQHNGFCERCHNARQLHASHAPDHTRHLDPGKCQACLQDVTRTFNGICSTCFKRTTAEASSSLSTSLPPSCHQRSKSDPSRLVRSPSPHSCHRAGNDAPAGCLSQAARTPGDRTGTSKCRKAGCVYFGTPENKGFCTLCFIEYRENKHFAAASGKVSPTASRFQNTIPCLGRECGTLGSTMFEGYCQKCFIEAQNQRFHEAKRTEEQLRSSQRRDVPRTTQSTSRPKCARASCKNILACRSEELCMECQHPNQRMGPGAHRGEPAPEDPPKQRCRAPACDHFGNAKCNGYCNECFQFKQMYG

Variants of: B1
Settings: with traf2_human TRAF2, Q12933

| Variant | effect of a mutation on the interaction |
| --- | --- |
| MVRLPLQCVLWGCLLTAVHPEPPTACREKQYLINSQCCSLCQPGQKLVSDCTEFTETECLPCGESEFLDTWNRETHCHQHKYRDPNLGLRVQQKGTSETDTICTCEEGWHCTSEACESCVLHRSCSPGFGVKQIATGVSDTICEPCPVGFFSNVSSAFEKCHPWTSCETKDLVVQQAGTNKTDVVCGPQDRLRALVVIPIIFGILFAILLVLVFIKKVAKKPTNKAPHPKQEPQEINFPDDLPGSNTAAPVQETLHGCQPVTQEDGKESRISVQERQ [C83R] | disrupting interaction strength |
| MVRLPLQCVLWGCLLTAVHPEPPTACREKQYLINSQCCSLCQPGQKLVSDCTEFTETECLPCGESEFLDTWNRETHCHQHKYCDPNLGLRVQQKGTSETDTICTCEEGWHCTSEACESCVLHRLCSPGFGVKQIATGVSDTICEPCPVGFFSNVSSAFEKCHPWTSCETKDLVVQQAGTNKTDVVCGPQDRLRALVVIPIIFGILFAILLVLVFIKKVAKKPTNKAPHPKQEPQEINFPDDLPGSNTAAPVQETLHGCQPVTQEDGKESRISVQERQ [S124L] | with no effect |
| MVRLPLQCVLWGCLLTAVHPEPPTACREKQYLINSQCCSLCQPGQKLVSDCTEFTETECLPCGESEFLDTWNRETHCHQHKYCDPNLGLRVQQKGTSETDTICTCEEGWHCTSEACESCVLHRSCSPGFGVKQIATGVSDTICEPCPVGFFSNVSSAFEKCHPWTSCETKDLVVQQAGTNKTDVVCGPQDRLRALVVIPIIFGILFAILLVLVFIKKVAKKPTNKAAHPKQEPQEINFPDDLPGSNTAAPVQETLHGCQPVTQEDGKESRISVQERQ [P227A] | with no effect |

Variants of: B2
Settings: with tyro3_human TYRO3, Q06418

| Variant | effect of a mutation on the interaction |
| --- | --- |
| P151A | with no effect |
| Q214K | with no effect |

Variants of: B3
Settings: with ephb6_human EPHB6, O15197

| Variant | effect of a mutation on the interaction |
| --- | --- |
| MQVQDDGVNLIPFAKCSRVVSRSPPPRLPSQSLRPMPQRYGDVFWKNLNQRPTPTWLEEQHIPPMLRATGCSQLGLYPPEQLPPPEMLWRRKKRRPCLEGMQQQGLGGVPARVRAVTYHLEDLRRRQSIINELKKAQWGSSGAASEPVVLGEDGCGFPSTNEYPDLEEERATYPQEEDRFLTPGRAQLLWSPWSPLDQEEACASRQLHSLASFSTVTARRNPLHNPWGMELAASEE [E153D] | with no effect |

Variants of: B4
Settings: with tnap3_human TNFAIP3, P21580

| Variant | effect of a mutation on the interaction |
| --- | --- |
| V16M | with no effect |
| K30T | with no effect |
